Legend:
Assay in all cases: yeast surface display titration (apparent KD)
[1] = target: human Bcl-2 a.a. 1-207 with C-terminal avi-6his tag (human, UniProt P10415 2-207)
[2] = target: T1, human Bcl-w a.a. 1-182 with C-terminal avi-6his tag (human, UniProt Q92843 1-182)
T1 construct: range 1-182; also called BCL2L2
T1 sequence: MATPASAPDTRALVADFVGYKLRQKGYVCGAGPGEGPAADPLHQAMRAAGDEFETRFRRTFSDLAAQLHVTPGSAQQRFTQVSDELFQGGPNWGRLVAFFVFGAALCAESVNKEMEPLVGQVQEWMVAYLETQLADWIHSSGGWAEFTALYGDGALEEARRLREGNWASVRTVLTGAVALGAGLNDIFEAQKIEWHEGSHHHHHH

Amino acid sequences for entries named in this document (tags omitted). A change or cut given only in a name is not applied to a line headed by its entry.
UniProt P10415: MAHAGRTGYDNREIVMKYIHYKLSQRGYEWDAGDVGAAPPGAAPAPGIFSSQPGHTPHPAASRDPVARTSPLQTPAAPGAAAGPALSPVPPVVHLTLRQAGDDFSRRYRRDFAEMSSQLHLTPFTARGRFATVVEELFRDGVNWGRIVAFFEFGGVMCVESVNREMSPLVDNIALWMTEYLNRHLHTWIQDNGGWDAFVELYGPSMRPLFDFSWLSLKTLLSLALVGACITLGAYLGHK
UniProt Q07817: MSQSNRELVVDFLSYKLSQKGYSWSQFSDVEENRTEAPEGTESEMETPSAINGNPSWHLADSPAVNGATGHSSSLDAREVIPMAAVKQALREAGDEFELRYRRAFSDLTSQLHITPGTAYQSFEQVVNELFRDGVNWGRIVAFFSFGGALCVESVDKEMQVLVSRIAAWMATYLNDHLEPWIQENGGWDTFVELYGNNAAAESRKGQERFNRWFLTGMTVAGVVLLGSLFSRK

[3] = target: T2, human Bcl-XL a.a. 1-205 with C-terminal avi-6his tag (human, UniProt Q07817 2-206)
T2 construct: also called BCL2L1

B1: BbpD04.3 (designed binder)
chain: ADWKKVLDKAKDIAENRVRELKQKLEEFYKEAMKLDLTQEMRRKLMLRWIAAMLMAIGDIFNAIRQAKQEADKLKKAGLVNSQQLDELKRRLEELKEEASRKARDYGREFQLKLEY
- Kd [1]: 20 nM
- Kd [2]: 34 nM
- Kd [3]: 34 nM
